Our source for the IC50 values is US20080200454A1, “CARBON-LINKED TETRAHYDRO-PYRAZOLO-PYRIDINE MODULATORS OF CATHEPSIN S” (priority 2007, published 2008).

Amino acid sequences for entries named in this document (tags omitted). Residues count along the entry.
UniProt P25774, 115-331: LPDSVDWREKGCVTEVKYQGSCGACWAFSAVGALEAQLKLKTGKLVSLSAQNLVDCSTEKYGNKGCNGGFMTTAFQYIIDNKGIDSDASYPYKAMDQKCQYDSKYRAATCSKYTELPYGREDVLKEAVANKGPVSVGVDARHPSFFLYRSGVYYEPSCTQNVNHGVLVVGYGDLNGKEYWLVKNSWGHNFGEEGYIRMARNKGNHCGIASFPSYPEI

In this test the target is Recombinant human cathepsin S (CatS) (Homo sapiens, UniProt P25774). Description: Recombinant human cathepsin S (CatS) inhibition assay, fluorogenic substrate Z-Valine-Valine-Arginine-AMC.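 Further: Baculovirus-expressed CatS in pH 5.0 sodium acetate buffer with DTT and NaCl, fluorescence read each minute over 20 min, inhibition derived from rate slope.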 The following applies: read-out: CatS IC50; Table 4; average of results obtained.

Consider “3-(4-Chloro-3-{[4-({[(3-fluorophenyl)methyl]amino}methyl)phenyl]ethynyl}phenyl)-1-(3-thiomorpholin-4-ylpropyl)-1,4,6,7-tetrahydro-5H-pyrazolo[4,3-c]pyridine-5-carboxamide [Example 543]”, for which the IC50 worked out at 0.13 µM.
